How the values were obtained:
[1] = target: actin (5% Alexa488-labeled) (UniProt P68135); assay: TIRF microscopy of single actin filaments (barbed end pause times); 1 µM actin (5% Alexa488-labeled), 2.5 µM talin construct with 5 µM V1ab4, 25 mM KCl, 5 mM Tris pH 7.8; exponential fit of the pause times
[2] = target: actin (5% Alexa488-labeled) (UniProt P68135); assay: TIRF microscopy of single actin filaments (barbed end pause times); 1 µM actin (5% Alexa488-labeled), 2.5 µM talin construct with 5 µM V1ab4, 100 mM KCl, 5 mM Tris pH 7.8; exponential fit of the pause times

Substance | koff [1] [s⁻¹] | t1/2 of barbed end pauses [1] [min] | koff [2] [s⁻¹] | t1/2 of barbed end pauses [2] [min]
TΔ1ΔAIΔABD2-V_(1ab4) complex, Q9Y490 1-2541; P18206-2 1-1066 | 0.007 | 1.66 | – | –
TΔ1ΔAI-V_(1ab4) complex, Q9Y490 1-2541; P18206-2 1-1066 | 0.0056 | 2.07 | 0.006 | 1.93

— article PMC11532549
